Results on one compound are retold here after patent publication US11447505B1, “Pyrrolo[2,3-b]pyridine compounds and their use in the treatment of cancer” (priority 2017, dated 2022).

Series [1] in a line: Skin and blood compound concentrations after topical application to FVB mice.
The test system of series [2] is kinase targets listed in tables 3 and 4. Conditions: relative to MRCKβ Ki.

For `c1cc(-c2c[nH]c3nccc(N4CCC[C@@]5(CCCCN5)C4)c23)ncn1` [Example E117, (6S)-8-(3-pyrimidin-4-yl-1H-pyrrolo[2,3-b]pyridin-4-yl)-1,8-diazaspiro[5.5]undecane], in series [1], the “concentration in blood, repeated 25 μg doses relative to single 10 μg dose” value worked out at 4 fold and the “concentration in skin, repeated 25 μg doses relative to single 10 μg dose” value was 2.8 fold. Further, in series [2] (MRCKβ), the “Fold selectivity MRCKβ” value is reported as 1. In series [2] (ROCK1), the “Fold selectivity ROCK1” value came to 39. The “Fold selectivity STK22D” value in series [2] (STK22D) turned out to be 99.
